Data on three molecules can be found in patent publication US5194611A, “Separation technique for a mixture of (6RS)-diastereoisomers of an ammonium salt of N^5 -methyl-5,6,7,8-tetrahydrofolic acid into single (6R) and (6S)-diastereoisomers” (Sapec S.A. fine chemicals, priority 1990, dated 1993).

Structures can show the parent of a compound that is named as a salt.

This data set can be described thus: in vivo. The conditions noted are these: mouse, iv.
Regarding `CN1c2c(nc(N)[nH]c2=O)NC[C@@H]1CNc1ccc(C(=O)N[C@@H](CCC(=O)O)C(=O)O)cc1` [(6S)-N^5 -Methyl-THF.Ca^2+, (6S)-N^5 -methyl-THF-calcium salt], the LD50 came to 847 mg/kg.

Take `CN1c2c(nc(N)[nH]c2=O)NCC1CNc1ccc(C(=O)N[C@@H](CCC(=O)O)C(=O)O)cc1` (stereo partly drawn) [(6RS)-N^5 -Methyl-THF.Ca^2+, (6RS)-N^5 -methyl-THF-calcium salt, reference compound]: the LD50 came to 339 mg/kg. Turning to `CN1c2c(nc(N)[nH]c2=O)NC[C@H]1CNc1ccc(C(=O)N[C@@H](CCC(=O)O)C(=O)O)cc1` [(6R)-N^5 -Methyl-THF.Ca^2+, (6R)-N^5 -methyl-THF-calcium salt], the LD50 came out at 460 mg/kg.

Usually LD50 stands for the dose at which mortality reaches 50%. A low value points to a more toxic substance.
